The values below come from ChEMBL document CHEMBL3244020, “Trichloroacetamidines, a new class of positive inotropic agents” (J Med Chem, 1978).

For this test, the species on record is Felis catus. Nature of the test: Positive inotropic activity in cat heart papillary muscle assessed as increase in contractile force at 10 ug/mL measured for 5 to 30 mins. Format: functional. The conditions noted are these: Muscle tissue. Summed up: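 Right-ventricular cat papillary muscles in Krebs–Henseleit at 37 °C, field-stimulated at 1/s (4–10 ms, 6–10 V). Muscles equilibrated about 90 min, until force fell to 25–30% of original. Compound added and force recorded at 5, 10, 20 and 30 min, followed by ouabain 0.5 μg/mL. Positives were retested on three more preparations at ≥3 concentrations. Scored as mg increase in contractile force.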

For `C/N=C(\N(C)C)C(Cl)(Cl)Cl`, the Activity was found to be 201 mg.
